#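 Cultured in 96-well plates, cells were exposed to test compound for 48 hours across five concentrations. At the GI50, growth is halved. The concentration for full growth arrest is given as TGI.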
# Columns and labels:
# Experiment in all cases: inhibition of tumour cell growth, NCI panel, 48 h
# [1] = system: 786-0 renal
# [2] = system: A498 renal
# [3] = system: A549 NSCLC
# [4] = system: ACHN renal
# [5] = system: BT-549 breast
# [6] = system: CAKI-1 renal
# [7] = system: COLO 205 colon
# [8] = system: DU-145 prostate
# [9] = system: EKVX NSCLC
# [10] = system: HCT-116 colon
# [11] = system: HCT-15 colon
# [12] = system: HOP-62 NSCLC
# [13] = system: HOP-92 NSCLC
# [14] = system: HS 578T breast
# [15] = system: HT29 colon
# [16] = system: IGROV1 ovarian
# [17] = system: K-562 leukemia
# [18] = system: KM12 colon
# [19] = system: LOX IMVI melanoma
# [20] = system: M14 melanoma
# [21] = system: MALME-3M melanoma
# [22] = system: MCF7 breast
# [23] = system: MDA-MB-231 breast
# [24] = system: MDA-MB-435
# [25] = system: MDA-N
# [26] = system: MOLT-4 leukemia
# [27] = system: NCI-H226 lung
# [28] = system: NCI-H23 lung
# [29] = system: NCI-H322M lung
# [30] = system: NCI-H460 lung
# [31] = system: NCI-H522 lung
# [32] = system: NCI/ADR-RES ovarian
# [33] = system: OVCAR-3 ovarian
# [34] = system: OVCAR-4 ovarian
# [35] = system: OVCAR-5 ovarian
# [36] = system: OVCAR-8 ovarian
# [37] = system: PC-3 prostate
# [38] = system: RPMI-8226 leukemia
# [39] = system: RXF 393 renal
# [40] = system: SF-268 CNS
# [41] = system: SF-295 CNS
# [42] = system: SF-539 CNS
# [43] = system: SK-MEL-2 melanoma
# [44] = system: SK-MEL-28 melanoma
# [45] = system: SK-MEL-5 melanoma
# [46] = system: SK-OV-3 ovarian
# [47] = system: SN12C renal
# [48] = system: SNB-19 CNS
# [49] = system: SNB-75 CNS
# [50] = system: SR leukemia
# [51] = system: SW-620 colon
# [52] = system: T-47D breast
# [53] = system: TK-10 renal
# [54] = system: U251 CNS
# [55] = system: UACC-257 melanoma
# [56] = system: UACC-62 melanoma
# [57] = system: UO-31 renal
# [58] = system: CCRF-CEM leukemia
# [59] = system: DLD-1 colon
# [60] = system: DMS 114 small cell lung
# [61] = system: DMS 273 small cell lung
# [62] = system: HCC-2998 colon
# [63] = system: HL-60(TB) leukemia
# [64] = system: HOP-18 NSCLC
# [65] = system: KM20L2 colon
# [66] = system: LXFL 529 NSCLC
# [67] = system: M19-MEL melanoma
# [68] = system: SNB-78 CNS
# [69] = system: XF 498 CNS
smiles,measurement,setting,value
O=C(O)C1(Nc2ccccc2)CCN(Cc2ccccc2)CC1,TGI,[1],> 100 µM
same,TGI,[2],> 100 µM
same,TGI,[3],> 100 µM
same,TGI,[4],> 100 µM
same,TGI,[5],> 100 µM
same,TGI,[6],> 100 µM
same,TGI,[7],> 100 µM
same,TGI,[8],> 100 µM
same,TGI,[9],> 100 µM
same,TGI,[10],> 100 µM
same,TGI,[11],> 100 µM
same,TGI,[12],> 100 µM
same,TGI,[13],> 100 µM
same,TGI,[14],> 100 µM
same,TGI,[15],> 100 µM
same,TGI,[16],> 100 µM
same,TGI,[17],> 100 µM
same,TGI,[18],> 100 µM
same,TGI,[19],> 100 µM
same,TGI,[20],> 100 µM
same,TGI,[21],> 100 µM
same,TGI,[22],> 100 µM
same,TGI,[23],> 100 µM
same,TGI,[24],> 100 µM
same,TGI,[25],> 100 µM
same,TGI,[26],> 100 µM
same,TGI,[27],> 100 µM
same,TGI,[28],> 100 µM
same,TGI,[29],> 100 µM
same,TGI,[30],> 100 µM
same,TGI,[31],> 100 µM
same,TGI,[32],> 100 µM
same,TGI,[33],> 100 µM
same,TGI,[34],> 100 µM
same,TGI,[35],> 100 µM
same,TGI,[36],> 100 µM
same,TGI,[37],> 100 µM
same,TGI,[38],> 100 µM
same,TGI,[39],> 100 µM
same,TGI,[40],> 100 µM
same,TGI,[41],> 100 µM
same,TGI,[42],> 100 µM
same,TGI,[43],> 100 µM
same,TGI,[44],> 100 µM
same,TGI,[45],> 100 µM
same,TGI,[46],> 100 µM
same,TGI,[47],> 100 µM
same,TGI,[48],> 100 µM
same,TGI,[49],> 100 µM
same,TGI,[50],> 100 µM
same,TGI,[51],> 100 µM
same,TGI,[52],> 100 µM
same,TGI,[53],> 100 µM
same,TGI,[54],> 100 µM
same,TGI,[55],> 100 µM
same,TGI,[56],> 100 µM
same,TGI,[57],> 100 µM
O=NN(CCSCCCl)C(=O)NC1CCCCC1,GI50,[1],23.4 µM
same,TGI,[1],73.2 µM
same,GI50,[2],43.1 µM
same,TGI,[2],> 100 µM
same,GI50,[3],30.2 µM
same,TGI,[3],> 100 µM
same,GI50,[4],6.78 µM
same,TGI,[4],61.9 µM
same,GI50,[5],17.9 µM
same,TGI,[5],41.2 µM
same,GI50,[6],16 µM
same,TGI,[6],58.2 µM
same,GI50,[58],4.37 µM
same,TGI,[58],82.7 µM
same,GI50,[7],42.2 µM
same,TGI,[7],93.8 µM
same,GI50,[59],55.1 µM
same,TGI,[59],> 100 µM
same,GI50,[60],13 µM
same,TGI,[60],89.2 µM
same,GI50,[61],15.3 µM
same,TGI,[61],62.5 µM
same,GI50,[8],68.3 µM
same,TGI,[8],> 100 µM
same,GI50,[9],> 100 µM
same,TGI,[9],> 100 µM
same,GI50,[62],42 µM
same,TGI,[62],94.8 µM
same,GI50,[10],21.7 µM
same,TGI,[10],33.5 µM
same,GI50,[11],23.9 µM
same,TGI,[11],67.7 µM
same,GI50,[63],5.23 µM
same,TGI,[63],40.2 µM
same,GI50,[64],68.6 µM
same,TGI,[64],> 100 µM
same,GI50,[12],36.1 µM
same,TGI,[12],73 µM
same,GI50,[13],26.2 µM
same,TGI,[13],70.5 µM
same,GI50,[14],9.75 µM
same,TGI,[14],59.2 µM
same,GI50,[15],37 µM
same,TGI,[15],> 100 µM
same,GI50,[16],79 µM
same,TGI,[16],> 100 µM
same,GI50,[17],19.4 µM
same,TGI,[17],37.8 µM
same,GI50,[18],61.1 µM
same,TGI,[18],> 100 µM
same,GI50,[65],29.9 µM
same,TGI,[65],80.9 µM
same,GI50,[19],16.3 µM
same,TGI,[19],48.2 µM
same,GI50,[66],17.8 µM
same,TGI,[66],37.5 µM
same,GI50,[20],34.9 µM
same,TGI,[20],> 100 µM
same,GI50,[67],34.5 µM
same,TGI,[67],79 µM
same,GI50,[21],42.9 µM
same,TGI,[21],94.6 µM
same,GI50,[22],8.96 µM
same,TGI,[22],> 100 µM
same,GI50,[23],51.5 µM
same,TGI,[23],> 100 µM
same,GI50,[24],48.9 µM
same,TGI,[24],> 100 µM
same,GI50,[25],39.2 µM
same,TGI,[25],> 100 µM
same,GI50,[26],3.96 µM
same,TGI,[26],59.3 µM
same,GI50,[27],27.6 µM
same,TGI,[27],81.5 µM
same,GI50,[28],20.3 µM
same,TGI,[28],65.9 µM
same,GI50,[29],> 100 µM
same,TGI,[29],> 100 µM
same,GI50,[30],4.75 µM
same,TGI,[30],74.9 µM
same,GI50,[31],16.1 µM
same,TGI,[31],34.6 µM
same,GI50,[33],38.6 µM
same,TGI,[33],> 100 µM
same,GI50,[34],70 µM
same,TGI,[34],> 100 µM
same,GI50,[35],51.5 µM
same,TGI,[35],84.1 µM
same,GI50,[36],25.3 µM
same,TGI,[36],50.2 µM
same,GI50,[37],35.1 µM
same,TGI,[37],> 100 µM
same,GI50,[38],24 µM
same,TGI,[38],70 µM
same,GI50,[39],24.7 µM
same,TGI,[39],47.7 µM
same,GI50,[40],24.8 µM
same,TGI,[40],68.7 µM
same,GI50,[41],22.1 µM
same,TGI,[41],> 100 µM
same,GI50,[42],24.4 µM
same,TGI,[42],55.5 µM
same,GI50,[43],44.3 µM
same,TGI,[43],63.7 µM
same,GI50,[44],73.6 µM
same,TGI,[44],> 100 µM
same,GI50,[45],47.8 µM
same,TGI,[45],> 100 µM
same,GI50,[46],56 µM
same,TGI,[46],> 100 µM
same,GI50,[47],28.9 µM
same,TGI,[47],93.6 µM
same,GI50,[48],55.1 µM
same,TGI,[48],> 100 µM
same,GI50,[49],21.8 µM
same,TGI,[49],66.3 µM
same,GI50,[68],> 100 µM
same,TGI,[68],> 100 µM
same,GI50,[50],4.13 µM
same,TGI,[50],40.8 µM
same,GI50,[51],19.4 µM
same,TGI,[51],76.7 µM
same,GI50,[52],34.3 µM
same,TGI,[52],> 100 µM
same,GI50,[53],> 100 µM
same,TGI,[53],> 100 µM
same,GI50,[54],20 µM
same,TGI,[54],73.1 µM
same,GI50,[55],36.3 µM
same,TGI,[55],71.3 µM
same,GI50,[56],15.7 µM
same,TGI,[56],59.2 µM
same,GI50,[57],26.8 µM
same,TGI,[57],61.5 µM
same,GI50,[69],24.9 µM
same,TGI,[69],62.5 µM

# Source: PubChem BioAssay (NCI)
